What is called EC50 is the concentration giving half of the maximal effect.

Protein sequences, listed by entry. Tags and fused reporters are not part of them. Lines headed by an entry give the natural chain unless they say otherwise; changes in a name come on top.
UniProt P35372: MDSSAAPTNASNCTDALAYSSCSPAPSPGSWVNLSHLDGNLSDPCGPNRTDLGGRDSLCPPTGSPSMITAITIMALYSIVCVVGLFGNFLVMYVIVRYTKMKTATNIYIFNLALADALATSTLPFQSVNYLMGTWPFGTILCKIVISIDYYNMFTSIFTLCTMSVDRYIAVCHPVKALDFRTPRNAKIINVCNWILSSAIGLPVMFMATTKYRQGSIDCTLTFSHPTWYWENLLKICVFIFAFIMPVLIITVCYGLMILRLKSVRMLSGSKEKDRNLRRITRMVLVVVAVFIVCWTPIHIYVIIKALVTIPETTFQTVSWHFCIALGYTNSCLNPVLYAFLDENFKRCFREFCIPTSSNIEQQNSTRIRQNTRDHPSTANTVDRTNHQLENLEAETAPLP
UniProt P41145: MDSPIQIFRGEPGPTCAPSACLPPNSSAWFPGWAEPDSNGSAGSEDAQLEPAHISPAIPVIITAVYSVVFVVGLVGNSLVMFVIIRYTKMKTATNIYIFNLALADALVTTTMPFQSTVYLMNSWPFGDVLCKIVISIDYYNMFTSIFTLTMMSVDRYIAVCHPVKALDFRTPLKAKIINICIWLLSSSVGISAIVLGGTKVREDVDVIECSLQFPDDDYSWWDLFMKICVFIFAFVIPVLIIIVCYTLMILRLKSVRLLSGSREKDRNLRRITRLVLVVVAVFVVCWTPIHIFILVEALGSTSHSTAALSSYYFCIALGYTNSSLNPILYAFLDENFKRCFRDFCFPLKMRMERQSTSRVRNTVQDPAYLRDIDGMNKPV
UniProt P41146: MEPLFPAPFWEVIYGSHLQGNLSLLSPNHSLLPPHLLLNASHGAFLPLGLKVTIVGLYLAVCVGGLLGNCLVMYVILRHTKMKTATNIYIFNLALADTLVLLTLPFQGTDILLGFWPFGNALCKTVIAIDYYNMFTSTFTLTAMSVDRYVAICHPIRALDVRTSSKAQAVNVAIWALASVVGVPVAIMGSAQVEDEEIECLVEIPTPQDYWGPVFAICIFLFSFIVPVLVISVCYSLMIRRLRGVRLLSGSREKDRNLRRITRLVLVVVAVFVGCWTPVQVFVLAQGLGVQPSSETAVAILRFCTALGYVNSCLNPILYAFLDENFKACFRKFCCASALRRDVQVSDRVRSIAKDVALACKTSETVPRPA
UniProt P41143: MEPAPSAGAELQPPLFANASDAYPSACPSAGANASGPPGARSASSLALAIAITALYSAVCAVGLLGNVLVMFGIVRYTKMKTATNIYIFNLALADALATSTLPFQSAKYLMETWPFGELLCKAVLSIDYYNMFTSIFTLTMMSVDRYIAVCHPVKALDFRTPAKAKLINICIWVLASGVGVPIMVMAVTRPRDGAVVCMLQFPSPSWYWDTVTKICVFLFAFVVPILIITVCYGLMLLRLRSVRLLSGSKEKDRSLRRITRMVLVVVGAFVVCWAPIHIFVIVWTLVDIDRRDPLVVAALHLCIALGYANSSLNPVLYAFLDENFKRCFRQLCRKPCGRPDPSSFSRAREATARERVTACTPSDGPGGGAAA

Assay [1] deals with human μ-opioid receptors (Homo sapiens (Human), UniProt P35372). Briefly: In vitro mu-opioid receptor binding assay ([3H]-diprenorphine displacement). The conditions noted are these: read-out: Ki [Average ± Std Deviation] Opioid Receptor Mu, procedure of Example 23.
The target of assay [2] is human kappa opioid receptor (Homo sapiens (Human), UniProt P41145). Briefly: In vitro kappa-opioid receptor binding assay ([3H]-U69,593 displacement). The conditions noted are these: read-out: Ki [Average ± Std Deviation] Opioid Receptor Kappa, procedure of Example 25.
For assay [3], the target named is T1, human opioid receptor-like (ORL-1) (Homo sapiens (Human), UniProt P41146). Briefly: In vitro ORL-1 receptor [35S]GTPγS functional assay. The note with it: ORL-1 receptor activity response, procedure of Example 22.
In assay [4] the target is recombinant delta opioid receptor expressed in CHO-K1 cells (Homo sapiens (Human), UniProt P41143). Put plainly: In vitro delta-opioid receptor binding assay ([3H]-Naltrindole displacement). The conditions noted are these: read-out: Ki [Average ± Std Deviation] Opioid Receptor Delta, procedure of Example 27.
The target in assay [5] is T1, human opioid receptor-like (ORL-1). Put plainly: In vitro ORL-1 receptor binding assay ([3H]-nociceptin displacement). The note with it: read-out: Ki [Average ± Std Deviation] ORL-1, procedure of Example 21.

Regarding “2-(((E)-((1-((1R,1′R,3r,5S,5′S)-[3,9′-bi(9′-azabicyclo[3.3.1]nonan)]-3′-yl)-1H-benzo[d]imidazol-2-yl)methylene)amino)oxy)acetic acid”, the Ki worked out at 1500 nM in assay [1], 1540 nM in assay [2], 3960 nM in assay [4] and 102 nM in assay [5]. The “GTPγS ORL-1 Emax [mean ± SEM]” value in assay [3] stood at 34.7 ± 1.5%. In addition, the EC50 in assay [3] (read-out: GTPγS ORL-1 EC50 [mean ± SEM]) is 84.2 nM.

The values above are taken from US9090618B2, “Substituted benzimidazole-type piperidine compounds and uses thereof” (dated 2015).
